From patent publication EP4840868A1, “NOVEL DISACCHARIDE LINKER, PREPARATION METHOD THEREFOR AND USE THEREOF” (dated 2026)

Protein sequences, listed by entry. Tags and fused reporters are not part of them. Residues count along the entry.
UniProt T1WGN1, 38-843 limits assumed: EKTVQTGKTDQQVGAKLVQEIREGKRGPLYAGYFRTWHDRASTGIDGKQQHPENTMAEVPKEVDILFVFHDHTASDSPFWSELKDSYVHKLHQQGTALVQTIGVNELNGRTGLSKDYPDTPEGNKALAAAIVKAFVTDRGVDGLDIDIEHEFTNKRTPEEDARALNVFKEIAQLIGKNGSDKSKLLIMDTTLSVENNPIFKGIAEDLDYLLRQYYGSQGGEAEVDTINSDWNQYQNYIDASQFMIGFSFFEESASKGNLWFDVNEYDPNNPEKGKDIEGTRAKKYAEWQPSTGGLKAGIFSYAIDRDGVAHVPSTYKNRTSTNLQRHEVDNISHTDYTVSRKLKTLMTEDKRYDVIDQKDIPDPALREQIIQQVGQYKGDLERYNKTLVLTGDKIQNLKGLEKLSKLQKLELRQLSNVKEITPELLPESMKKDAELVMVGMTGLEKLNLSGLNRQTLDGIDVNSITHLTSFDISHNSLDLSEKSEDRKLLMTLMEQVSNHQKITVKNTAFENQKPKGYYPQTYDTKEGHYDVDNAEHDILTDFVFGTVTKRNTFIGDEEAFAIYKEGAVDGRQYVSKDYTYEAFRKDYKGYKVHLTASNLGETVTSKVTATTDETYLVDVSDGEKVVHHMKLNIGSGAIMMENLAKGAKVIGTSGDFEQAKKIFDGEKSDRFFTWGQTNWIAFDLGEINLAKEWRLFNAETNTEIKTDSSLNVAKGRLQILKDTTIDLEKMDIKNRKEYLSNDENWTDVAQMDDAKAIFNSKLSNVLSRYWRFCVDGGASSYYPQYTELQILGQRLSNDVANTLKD
UniProt Q99Y92, 37-995 limits assumed: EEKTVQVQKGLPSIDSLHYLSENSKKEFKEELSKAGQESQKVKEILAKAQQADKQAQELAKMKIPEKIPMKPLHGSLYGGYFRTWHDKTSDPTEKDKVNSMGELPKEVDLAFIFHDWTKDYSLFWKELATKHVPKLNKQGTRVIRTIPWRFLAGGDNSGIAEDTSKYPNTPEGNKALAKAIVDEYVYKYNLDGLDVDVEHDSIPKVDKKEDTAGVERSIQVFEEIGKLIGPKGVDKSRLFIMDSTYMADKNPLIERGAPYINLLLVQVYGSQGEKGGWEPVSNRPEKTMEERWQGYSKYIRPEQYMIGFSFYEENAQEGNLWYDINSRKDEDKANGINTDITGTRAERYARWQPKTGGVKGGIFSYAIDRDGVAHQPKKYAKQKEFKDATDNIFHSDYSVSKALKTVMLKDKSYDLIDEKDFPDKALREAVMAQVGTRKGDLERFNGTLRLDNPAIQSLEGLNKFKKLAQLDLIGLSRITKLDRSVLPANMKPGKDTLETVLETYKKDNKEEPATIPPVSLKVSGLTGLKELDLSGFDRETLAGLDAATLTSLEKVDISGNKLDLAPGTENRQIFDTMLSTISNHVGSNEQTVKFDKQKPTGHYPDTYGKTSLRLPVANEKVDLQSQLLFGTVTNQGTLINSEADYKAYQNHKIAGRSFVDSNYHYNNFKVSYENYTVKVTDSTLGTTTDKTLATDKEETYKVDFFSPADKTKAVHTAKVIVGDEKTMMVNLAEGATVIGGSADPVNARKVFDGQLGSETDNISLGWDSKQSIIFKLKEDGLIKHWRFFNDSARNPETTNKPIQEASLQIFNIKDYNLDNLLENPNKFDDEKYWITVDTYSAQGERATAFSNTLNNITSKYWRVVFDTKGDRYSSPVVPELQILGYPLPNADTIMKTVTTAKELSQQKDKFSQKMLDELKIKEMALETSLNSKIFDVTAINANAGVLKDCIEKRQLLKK

How the values were obtained:
Assay in all cases: Substrate specificity: transglycosylation of disaccharide linkers onto wild-type pertuzumab, LC-MS
[1] = target: Endo S2 (Streptococcus pyogenes serotype M49, UniProt T1WGN1); details: Endo S2 0.4 mg/mL; wild-type pertuzumab 10 mg/mL; linker 1.67 mM; pH 7.4, 25°C; after 6 hours
[2] = tested on: Endo Si; details: Endo Si 0.4 mg/mL; wild-type pertuzumab 10 mg/mL; linker 1.67 mM; pH 7.4, 25°C; after 6 hours
[3] = tested on: Endo Se2; details: Endo Se2 0.4 mg/mL; wild-type pertuzumab 10 mg/mL; linker 1.67 mM; pH 7.4, 25°C; after 6 hours
[4] = target: Endo S (Streptococcus pyogenes serotype M1, UniProt Q99Y92); details: Endo S 0.4 mg/mL; wild-type pertuzumab 10 mg/mL; linker 1.67 mM; pH 7.4, 25°C; after 6 hours

Row | SMILES | Transglycosylation efficiency (%) [1] [%] | Transglycosylation efficiency (%) [2] [%] | Transglycosylation efficiency (%) [3] [%] | Transglycosylation efficiency (%) [4] [%]
1 | C#CC[C@H]1O[C@@H]2OC(C)=N[C@@H]2[C@@H](O)[C@@H]1O[C@@H]1O[C@H](CO)[C@H](O)[C@H](O)[C@H]1O | 30 | >95 | 94.8 | 24
2 | CC1=N[C@H]2[C@@H](O1)O[C@H](CN=[N+]=[N-])[C@@H](O[C@@H]1O[C@H](CN=[N+]=[N-])[C@H](O)[C@H](O)[C@H]1O)[C@@H]2O | 25 | >95 | >95 | 10.8
3 | CCCC1=N[C@H]2[C@@H](O1)O[C@H](CO)[C@@H](O[C@@H]1O[C@H](C=NOCCN=[N+]=[N-])[C@H](O)[C@H](O)[C@H]1O)[C@@H]2O | 11.7 | 51.3 | 94.2 | 11.0
4 | [N-]=[N+]=NCC1=N[C@H]2[C@@H](O1)O[C@H](CO)[C@@H](O[C@@H]1O[C@H](CN=[N+]=[N-])[C@H](O)[C@H](O)[C@H]1O)[C@@H]2O | 7.7 | 68.2 | >95 | 0
5 | CC1=N[C@H]2[C@@H](O1)O[C@H](CO)[C@@H](S[C@@H]1O[C@H](CNC(=O)Cc3ccc(-c4nnc(C)nn4)cc3)[C@H](O)[C@H](O)[C@H]1O)[C@@H]2O | 10.2 | >95 | 34.4 | 5.8
6 | CCC1=N[C@H]2[C@@H](O1)O[C@H](CN=[N+]=[N-])[C@@H](O[C@@H]1O[C@H](CNC(=O)Cc3ccc(-c4nnc(C)nn4)cc3)[C@H](O)[C@H](O)[C@H]1O)[C@@H]2O | 13.1 | >95 | 59.4 | 9.7
7 | CC1=N[C@H]2[C@@H](O1)O[C@H](CO)[C@@H](S[C@@H]1O[C@H](C=NOCC(=O)NC(CCC(=O)NCCCN=[N+]=[N-])C(=O)NCCCN=[N+]=[N-])[C@H](O)[C@H](O)[C@H]1O)[C@@H]2O (stereo partly shown) | 55 | >95 | 94.9 | 13.6
8 | CC1=N[C@H]2[C@@H](O1)O[C@H](CN=[N+]=[N-])[C@@H](O[C@@H]1O[C@H](CNC(=O)Cc3ccc(-c4nnc(C)nn4)cc3)[C@H](O)[C@H](O)[C@H]1O)[C@@H]2O | 23.5 | >95 | 34.1 | 20.9
9 | CCC1=N[C@H]2[C@@H](O1)O[C@H](CO)[C@@H](O[C@@H]1O[C@H](C=NOCCN=[N+]=[N-])[C@H](O)[C@H](O)[C@H]1O)[C@@H]2O | >95 | >95 | 80.1 | 81.4
10 | [N-]=[N+]=NCC1=N[C@H]2[C@@H](O1)O[C@H](CO)[C@@H](O[C@@H]1O[C@H](CO)[C@@H](O)[C@H](O)[C@H]1O)[C@@H]2O | 72.6 | >95 | >95 | 29.4
11 | [N-]=[N+]=NCC1=N[C@H]2[C@@H](O1)O[C@H](CO)[C@@H](O[C@@H]1O[C@H](CO)[C@H](O)[C@H](O)[C@H]1O)[C@@H]2O | 36.3 | 90.6 | 76.3 | 13
12 | CC1=N[C@H]2[C@@H](O1)O[C@H](CN=[N+]=[N-])[C@@H](O[C@@H]1O[C@H](CNC(=O)CCOCCOCCOCCN=[N+]=[N-])[C@H](O)[C@H](O)[C@H]1O)[C@@H]2O | 35.3 | >95 | >95 | 24.1
13 | [N-]=[N+]=NCC(=O)N[C@H]1[C@H](O[C@H]2[C@H](O)[C@H]3N=C(CN=[N+]=[N-])O[C@H]3O[C@@H]2CO)O[C@H](CO)[C@@H](O)[C@@H]1O | 14.0 | 21.1 | 14.9 | 14.8
14 | C#C[C@H]1O[C@@H]2OC(C)=N[C@@H]2[C@@H](O)[C@@H]1O[C@@H]1O[C@H](CO)[C@H](O)[C@H](O)[C@H]1O | 13.9 | 38.4 | 16.1 | 17.8
15 | CC1=N[C@H]2[C@@H](O1)O[C@H](CO)[C@@H](S[C@@H]1O[C@H](C=NOCCNC(=O)CCC(=O)N3Cc4ccccc4C#Cc4ccccc43)[C@H](O)[C@H](O)[C@H]1O)[C@@H]2O | 4.7 | >95 | 36.3 | 7.6
16 | [N-]=[N+]=NCC1=N[C@H]2[C@@H](O1)O[C@H](CN=[N+]=[N-])[C@@H](O[C@@H]1O[C@H](CN=[N+]=[N-])[C@H](O)[C@H](O)[C@H]1O)[C@@H]2O | 7.8 | >95 | 80.1 | 6.6
17 | [N-]=[N+]=NCCC1=N[C@H]2[C@@H](O1)O[C@H](CO)[C@@H](O[C@@H]1O[C@H](CO)[C@H](O)[C@H](O)[C@H]1O)[C@@H]2O | 6.9 | 51.8 | 75.3 | 0
18 | [N-]=[N+]=NCCOCCOCCOCCC(=O)NC[C@H]1O[C@@H](O[C@H]2[C@H](O)[C@H]3N=C(CN=[N+]=[N-])O[C@H]3O[C@@H]2CO)[C@H](O)[C@@H](O)[C@H]1O | 29.9 | 60.8 | 88.4 | 11.7
19 | CC1=N[C@H]2[C@@H](O1)O[C@H](CNC(=O)CCC(=O)N1Cc3ccccc3C#Cc3ccccc31)[C@@H](O[C@@H]1O[C@H](CO)[C@H](O)[C@H](O)[C@H]1O)[C@@H]2O | 8.1 | 10.1 | 13.1 | 17.4
20 | CC1=N[C@H]2[C@@H](O1)O[C@H](CN=[N+]=[N-])[C@@H](O[C@@H]1O[C@H](CNC(=O)c3ccc(-c4nnc(C)nn4)cc3)[C@H](O)[C@H](O)[C@H]1O)[C@@H]2O | 6.7 | 60.7 | 17.7 | 5.1
21 | [N-]=[N+]=NCC(=O)N[C@H]1[C@H](O[C@H]2[C@H](O)[C@H]3N=C(CN=[N+]=[N-])O[C@H]3O[C@@H]2CO)O[C@H](CO)[C@H](O)[C@@H]1O | 23.6 | 21.2 | 22.5 | 15.9
22 | CCC1=N[C@H]2[C@@H](O1)O[C@H](CO)[C@@H](O[C@@H]1O[C@H](CN=[N+]=[N-])[C@H](O)[C@H](O)[C@H]1O)[C@@H]2O | 79.9 | >95 | >95 | 33.2
